Assay results: ChEMBL document CHEMBL1138153, “N-substituted 4beta-methyl-5-(3-hydroxyphenyl)-7alpha-amidomorphans are potent, selective kappa opioid receptor antagonists” (J Med Chem, 2006)

The chains behind the UniProt entries cited, without tags or fusion partners.
UniProt P35372, whole entry: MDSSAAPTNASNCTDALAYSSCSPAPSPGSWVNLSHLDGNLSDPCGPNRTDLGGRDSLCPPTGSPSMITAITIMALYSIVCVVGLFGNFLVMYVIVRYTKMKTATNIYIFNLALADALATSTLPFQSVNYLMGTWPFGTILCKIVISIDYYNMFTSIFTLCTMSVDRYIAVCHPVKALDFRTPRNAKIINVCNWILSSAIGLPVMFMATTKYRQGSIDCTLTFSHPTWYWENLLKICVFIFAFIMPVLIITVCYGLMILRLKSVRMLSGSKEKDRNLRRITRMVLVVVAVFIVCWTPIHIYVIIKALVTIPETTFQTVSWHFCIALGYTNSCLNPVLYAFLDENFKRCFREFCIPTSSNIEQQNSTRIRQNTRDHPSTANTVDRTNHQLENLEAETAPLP

Biological target: Mu-type opioid receptor (Homo sapiens) (UniProt P35372)
Assay: Inhibition of DAMGO stimulated [35S]GTP-gamma-S binding to cloned human mu opioid receptor expressed in CHO cells
Format: functional, cell-based
Procedure, shortened: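 Antagonism measured as a rightward shift of the agonist concentration–response curve for [35S]GTPγS binding in CHO cells expressing the cloned human receptor. Curves were run with and without one fixed concentration of test compound. Ke = [L]/(DR − 1), where [L] is the test compound concentration and DR is the ratio of agonist EC50 with versus without test compound.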

Compound CC(C)[C@@H](CN1CC[C@@](C)(c2cccc(O)c2)[C@@H](C)C1)NC(=O)[C@H]1Cc2ccc(O)cc2CN1 has a Ke of 25 nM.
